Key:
[1] = target: human CB1 (hCB1) receptor (Homo sapiens, UniProt P21554); experiment: Inhibition of forskolin-activated cAMP production upon activation of human CB1 receptor (HTRF assay, CHO-K1 cells); format: cell-based; conditions: agonism; CHO-K1 cells stably transfected with hCB1; pEC50=-log(EC50); relative to CP55490
Experimental: (§1) Functional activity of the test compounds was assessed by measuring their potency to inhibit forskolin-activated cAMP production upon activation of the human CB1 (hCB1) or human CB2 (hCB2) receptor through homogenous time resolved fluorescence (HTRF) assays.
(§2) CHO-K1 cells stably transfected with either hCB1 or hCB2 were grown up to 80-90% confluence in T175 Falcon flasks in DMEM/NUT MIX F-12 culture medium complemented with 2% Solution A (5.10^6 IU/1 penicillin G, 5 g/l streptomycin sulphate, 5.5 g/l pyruvate, 14.6 g/l L-glutamine, 1M NaOH) and 10% foetal calf serum. Before the experiments, medium was removed, cells were washed with PBS/EDTA (140 mM NaCl, 1 mM Na2-EDTA, 8 mM Na2HPO4.2H2O, 8.5 mM KH2PO4, 2.7 mM KCl, 21 mM glucose), resuspended in stimulation buffer (HBSS 1×, IBMX 1 mM, Hepes 5 mM, MgCl2 10 mM, BSA 0.1%, pH 7.4). Cells were diluted to a concentration of 8.10^5 cell/ml for hCB1 experiments and 10^6 cells/ml for hCB2 experiments. Assays were performed using the cAMP Dynamic HTRF kit (CIS bio international, France) according to the recommendations of the manufacturer. […]
(§3) After equilibration of the reaction mixtures for 1 to 24 hours in dark at room temperature, fluorescence was measured at 665 nm and 620 nm using a Discovery microplate fluorescence counter (Perkin Elmer), and the signal ratio of 665 nm/620 nm was calculated. […]

By UniProt entry, the sequences of proteins in these tests, tags left out.
UniProt P21554, whole entry: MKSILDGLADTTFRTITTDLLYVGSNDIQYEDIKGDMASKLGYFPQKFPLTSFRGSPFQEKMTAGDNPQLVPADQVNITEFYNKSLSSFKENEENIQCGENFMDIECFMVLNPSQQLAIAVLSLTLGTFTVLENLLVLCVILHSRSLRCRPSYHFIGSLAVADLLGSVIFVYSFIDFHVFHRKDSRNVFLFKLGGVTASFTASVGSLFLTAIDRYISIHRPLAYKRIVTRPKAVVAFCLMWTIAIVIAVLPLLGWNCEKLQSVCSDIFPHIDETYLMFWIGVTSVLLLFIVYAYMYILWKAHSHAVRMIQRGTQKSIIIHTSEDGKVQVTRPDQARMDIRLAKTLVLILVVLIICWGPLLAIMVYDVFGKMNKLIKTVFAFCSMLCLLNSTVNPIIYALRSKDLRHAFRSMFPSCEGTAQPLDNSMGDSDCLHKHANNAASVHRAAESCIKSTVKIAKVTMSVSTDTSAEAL
UniProt P34972, whole entry: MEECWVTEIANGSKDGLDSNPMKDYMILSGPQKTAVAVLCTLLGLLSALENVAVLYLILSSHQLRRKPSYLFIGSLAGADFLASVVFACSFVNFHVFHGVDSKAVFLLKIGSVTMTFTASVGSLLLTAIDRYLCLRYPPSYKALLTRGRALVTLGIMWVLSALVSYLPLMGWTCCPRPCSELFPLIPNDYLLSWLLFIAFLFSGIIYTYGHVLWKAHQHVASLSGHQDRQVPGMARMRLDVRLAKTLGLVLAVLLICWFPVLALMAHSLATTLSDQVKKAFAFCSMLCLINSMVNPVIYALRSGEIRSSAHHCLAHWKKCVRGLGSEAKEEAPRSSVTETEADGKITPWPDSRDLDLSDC

[2] = target: human CB2 (hCB2) receptor (Homo sapiens, UniProt P34972); experiment: Inhibition of forskolin-activated cAMP production upon activation of human CB2 receptor (HTRF assay, CHO-K1 cells); format: cell-based; conditions: agonism; CHO-K1 cells stably transfected with hCB2; pEC50=-log(EC50); relative to WIN55212-2
Experimental: as §1, §2, §3

SMILES: CC(C)(C)c1nc2cc(Sc3ccc(C#N)cc3)ccc2n1CCCCC(F)(F)F
- CB-1 pEC50 [1]: 8.3
- CB-2 pEC50 [2]: 8.8
